According to patent US6987093B2 (priority 2001, dated 2006):

Test system: S. pneumoniae
Assay: Single dose azithromycin pediatric AOM trial, subjects with S. pneumoniae at baseline
Format: in vivo, human
Details: corrected by ascribing one failure to the >256 μg/ml category
Excerpt: Children six months to twelve years were enrolled if they had symptoms and signs of acute otitis media (“AOM”) for less than four weeks and middle ear effusion by acoustic reflectometry. Symptoms necessary for enrollment included ear pain or fullness, discharge from the external auditory canal, decreased hearing or fever. On physical examination they must have had one or more of the following: bulging or marked erythema of the tympanic membrane, loss of the normal light reflex or tympanic membrane landmarks, or impaired tympanic mobility on biphasic pneumatic otoscopy. The effusion was to be documented by acoustic reflectometry with an abnormal reading of 3 or higher. […]
A phone contact occurred on study day 5 to assess for adverse events followed by visits on days 10 and 24–28, at which time detailed clinical assessments were made and adverse events were recorded. […]
The primary endpoint of the trial was the investigator designated cure rate at Day 24–28 for which a 95% confidence interval was computed using the normal approximation to the binomial distribution. Other endpoints analyzed included the clinical response rate by baseline pathogen at Day 24–28, the overall clinical response at Day 10, the percentage of subjects with individual signs and symptoms, as well as findings from pneumatic otoscopy and acoustic reflectometry. […]

CC[C@H]1OC(=O)[C@H](C)[C@@H](O[C@H]2C[C@@](C)(OC)[C@@H](O)[C@H](C)O2)[C@H](C)[C@@H](O[C@@H]2O[C@H](C)C[C@H](N(C)C)[C@H]2O)[C@](C)(O)C[C@@H](C)CN(C)[C@H](C)[C@@H](O)[C@]1(C)O [Azithromycin, 9a-aza-9a-methyl-9-deoxo-9a-homoerythromycin A]
cure rate, strains with a ribosome methylation mechanism of resistance: 2/6 | cure rate, strains with an efflux mechanism of resistance (mef(A)): 7/7 and seven of the seven
